Compound activity as filed in PubChem BioAssay.
MmCpn inh: Inhibitors of TCP-1 ring complex (TRiC) of Methanococcus maripaludis (MmCpn): qHTS; Chaperonin Mm-Cpn (Methanococcus maripaludis); purified Mm-Cpn ATPase, ADP Transcreener TR-FRET; Potency, µM (top dose mostly 76.9 µM), for the others: top-dose activity, negative = inhibition, hits mostly inhibitors; actives 0.031% (n = 330,000); further: potency means the concentration at half of the fitted maximal effect; on the % scale 0 is the no-effect control and ±100 the full control effect; nearly all actives have a fitted effect of over 80% in size
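Eu-cryptate anti-ADP/ADP-d2 competition gives a ratio inversely related to ADP. Enzyme at 25 nM was pre-exposed to compound for 10 min, then given 10 uM ATP for 30 min, 37°C throughout.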
Rango-impB inh: qHTS Assay for Inhibitors of Rango (Ran-regulated importin-beta cargo) - Importin beta complex formation; Importin subunit beta-1 (Homo sapiens), Q14974; Rango CFP/YFP FRET sensor + importin beta, 45 min; Potency, µM (top dose mostly 92.2 µM), without a hit: at the highest dose inhibition of complex formation; actives 0.031% (n = 340,000); calls by dose curve;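 further: potency means the concentration at half of the fitted maximal effect; 0% = DMSO wells and 100% = buffer wells lacking importin beta; nearly all actives have a fitted effect of over 15% in size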
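FRET biosensor Rango (snurportin 1 IBB between N-terminal EYFP and C-terminal Cerulean), 50 nM in PBS/1 mM DTT/0.02% Tween-20/0.1% BSA, preincubated 5 min RT with compound; 0.125 microM importin beta added, 45 min RT, CFP/YFP FRET ratio read.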
CCT modulator: High-Throughput Screening for Modulators of Cytosolic Chaperonin Activity; activity change, % (concentration not given with the values), hits read low; actives 0.3% (n = 360,000); purified chaperonin ATPase assay, HTRF ADP detection, 30 min; AID 651819, 2012; in the data active means activity change below about -30%; further: on the % scale 0 is the no-effect control and ±100 the full control effect
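We incubate TRiC, 40 or 20 nM final, with library compounds at 76 uM and 10 uM ATP for 30 min at 37 °C. ADP formed is detected with Transcreener HTRF reagents after 30 min at room temperature.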
Integrin act MD: qHTS for Activators of Integrin-Mediated Alleviation for Muscular Dystrophy; alpha7betagal myoblasts, beta-gal FDG fluorescence, 48 h; Potency, µM (doses to about 38.3 µM), for inactives: at the highest dose activation, usual class: activators; actives 0.064% (n = 350,000);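 further: potency means the concentration at half of the fitted maximal effect; 100% = response of the positive control SU9516; nearly all actives have a fitted effect of over 60% in size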
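alpha7betagal+/- myoblasts (passage 13, 250/well) treated 48 h at 37C with compounds at 1:260 dilution of DMSO stock. Lysed, then beta-galactosidase activity read as FDG fluorescence (ex 480/em 540) after 30 min, with pre-read for autofluorescence.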
Rango dissoc inh: qHTS Assay for Inhibitors of RanGTP induced Rango (Ran-regulated importin-beta cargo) - Importin beta complex dissociation; Biochemical FRET Rango-importin beta, RanGTP-induced dissociation; Potency, µM (series often up to 46.1 µM), without a hit: top-dose activity change, negative = inhibition; actives 0.071% (n = 340,000); AID 540253, 2011; calls by dose curve; further: potency means the concentration at half of the fitted maximal effect; % of control where 0% means no effect; nearly all actives have a fitted effect of over 45% in size
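Rango FRET biosensor (snurportin-1 IBB flanked by N-terminal EYFP and C-terminal CFP10) at 0.1 uM, with 0.25 uM importin beta in PBS, 1mM DTT, 0.02% Tween-20, 0.1% BSA. 0.6 uM Ran, 2mM GTP and 0.2 uM RCC1 were then added for 45 min at room temperature. Inhibition read as loss of FRET rise.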
* marks the source's active call; other numbers are inactive results; ? = inconclusive; / = no result given; [ ] = another dose, or the depositor's remark. Hits are enriched below; roughly 0.51% of the tested compounds scored in any of these assays. Unless noted, the call rests on the fitted dose curve; in most records, active means well fitted curve in the direction sought with a large enough effect; inconclusive means small, poorly fitted or top-dose-only effect, or another doubt; inactive means no such curve, though single readings can be large; an effect the other way counts as inactive or inconclusive.

Protein sequences, listed by entry. Tags and fused reporters are not part of them.
Importin subunit beta-1 (Homo sapiens), Q14974, UniProt Q14974, whole entry, looked up: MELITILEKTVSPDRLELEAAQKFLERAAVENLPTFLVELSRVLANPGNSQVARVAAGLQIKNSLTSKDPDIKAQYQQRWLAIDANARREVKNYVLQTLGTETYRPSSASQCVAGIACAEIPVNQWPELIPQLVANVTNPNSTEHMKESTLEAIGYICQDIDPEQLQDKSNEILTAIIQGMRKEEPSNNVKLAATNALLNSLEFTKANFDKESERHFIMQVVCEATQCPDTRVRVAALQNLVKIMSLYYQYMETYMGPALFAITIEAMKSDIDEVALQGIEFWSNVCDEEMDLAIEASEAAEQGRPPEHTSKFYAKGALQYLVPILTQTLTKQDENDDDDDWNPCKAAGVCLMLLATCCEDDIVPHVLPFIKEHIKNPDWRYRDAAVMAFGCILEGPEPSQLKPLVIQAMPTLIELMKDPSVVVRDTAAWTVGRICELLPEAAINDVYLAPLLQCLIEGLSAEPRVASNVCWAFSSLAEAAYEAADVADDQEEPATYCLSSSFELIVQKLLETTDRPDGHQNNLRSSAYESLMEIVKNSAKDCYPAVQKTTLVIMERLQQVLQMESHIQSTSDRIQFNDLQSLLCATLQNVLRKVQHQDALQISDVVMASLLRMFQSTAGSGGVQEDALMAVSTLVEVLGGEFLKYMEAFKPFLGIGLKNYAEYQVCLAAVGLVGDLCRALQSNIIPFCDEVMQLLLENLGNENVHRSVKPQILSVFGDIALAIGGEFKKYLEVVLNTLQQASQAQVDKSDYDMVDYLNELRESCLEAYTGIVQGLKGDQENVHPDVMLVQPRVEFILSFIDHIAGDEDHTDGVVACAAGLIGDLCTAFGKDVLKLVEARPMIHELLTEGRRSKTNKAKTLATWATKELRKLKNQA

1. FC(F)(F)c1ccccc1NC(=S)N1CCN(c2ccccn2)CC1
2. S=C(Nc1ccccc1Cl)N1CCCCCC1
3. S=C(Nc1ccc(Cl)cc1Cl)N1CCCCC1
4. FC(F)(F)c1ccccc1NC(=S)N1CCCC1
5. COc1cc2c(cc1OC)C1O[C@](CCCCN3C(=O)c4ccccc4C3=O)(C2)OC2=C1C(=O)c1ccccc1C2=O
6. COC(=O)CSCc1nc2ccccc2[nH]c1=O
7. OC[C@@H]1CN(Cc2ccccc2)C[C@H](n2cnc3c(N4CCOCC4)ncnc32)O1
8. Cc1ccc(Cn2cc(CN(C)C3CN(Cc4cn(Cc5ccc(C)cc5)nn4)S(=O)(=O)C3)nn2)cc1 (stereo not drawn)

| assay / compound | 1 | 2 | 3 | 4 | 5 | 6 | 7 | 8 |
| --- | --- | --- | --- | --- | --- | --- | --- | --- |
| MmCpn inh | -1% | 0% | 2% | -1% | 0%[15.4 µM] | -3% | / | / |
| CCT modulator | 0 | 0 | -66* | -38* | / | -33* | -2 | 0 |
| Rango-impB inh | -2% | 3% | 0% | -3% | / | -5% | / | / |
| Integrin act MD | -18% | 5% | 4% | 8% | / | 13% | / | / |
| Rango dissoc inh | ? | 0% | 4% | 1% | / | ? | / | / |

9. Cc1cc(NC(=O)CSc2nc3ccccc3cc2C#N)no1
10. CCCCNC(=O)c1cn(CC(C)C)c(=O)c2c1c1ccccc1n2C
11. CC(C)CCNC(=O)c1cn(CC(C)C)c(=O)c2c1c1ccccc1n2C
12. CCOc1cc(CNc2ccc(N(C)C)cc2)cc(Br)c1OCC(=O)NC(C)(C)C
13. O=C(Nc1ccc(N2CCCCC2)cc1)c1cncc(Br)c1
14. O=C(Nc1ccc(N2CCN(C(=O)c3ccccc3F)CC2)cc1)c1cncc(Br)c1
15. CCOC(=O)c1cc(OC(=O)c2ccccc2)n(-c2ccccc2)n1
16. CCOC(=O)c1cc(OC(=O)c2cccc([N+](=O)[O-])c2)n(-c2ccccc2)n1

| assay / compound | 9 | 10 | 11 | 12 | 13 | 14 | 15 | 16 |
| --- | --- | --- | --- | --- | --- | --- | --- | --- |
| MmCpn inh | -6% | 1% | 0% | 25µM* | 1% | 1% | -1% | 0% |
| CCT modulator | -94* | -1 | -41* | -4 | -4 | 1 | -1 | -35* |
| Rango-impB inh | 7% | -1% | 4% | 0% | 0% | 1% | 2% | 3% |
| Integrin act MD | 12% | 14% | -13% | -58% | 13% | 13µM* | -14% | 9% |
| Rango dissoc inh | -6% | 7% | 7% | -26% | 5% | -1% | -16% | -6% |

17. NS(=O)(=O)c1cc2c(cc1Cl)NC(CC1CCCC1)NS2(=O)=O (stereo not drawn)
18. NS(=O)(=O)c1cc2c(cc1Cl)NC(Cc1ccccc1)NS2(=O)=O (stereo not drawn)
19. NC(c1ccccc1)c1ccncc1 (stereo not drawn)
20. COc1cc2c(cc1OC)C1O[C@](CCCCN3C(=O)c4ccccc4C3=O)(C2)Oc2cc(C)n(Cc3ccccc3)c(=O)c21
21. COc1ccc(-c2csc(NC(=O)CS(=O)(=O)c3ccccc3)n2)cc1OC
22. Cc1cc2ccccc2n1CCNC(=O)c1ccccc1
23. CC(=O)NCCn1c(C)cc2ccccc21
24. Cc1cc2ccccc2n1CCNC(=O)c1ccc(S(=O)(=O)N2CCOCC2)cc1

| assay / compound | 17 | 18 | 19 | 20 | 21 | 22 | 23 | 24 |
| --- | --- | --- | --- | --- | --- | --- | --- | --- |
| MmCpn inh | 0% | 1% | 2% | -6%[15.4 µM] | / | 40µM* | 1% | 32µM* |
| CCT modulator | -19 | -4 | -43* | / | -31* | -1 | -2 | -5 |
| Rango-impB inh | 58µM* | 1% | 8% | / | / | 1% | ? | -2% |
| Integrin act MD | -7% | 1% | 0% | / | -2% | 10% | -5% | -27% |
| Rango dissoc inh | -6% | -13% | 14% | / | / | ? | -27% | -10% |

25. COc1cc2c(cc1OC)[C@@H]1O[C@](CCCCN3C(=O)c4ccccc4C3=O)(C2)Oc2cc(C)n(-c3ccccc3)c(=O)c21
26. CCCCc1c(Cc2ccccc2)ncn1CCc1ccccc1OC
27. CCCC#Cc1ccc2c(c1)O[C@H](CN(C)S(=O)(=O)c1cccc(OC)c1)[C@H](C)CN([C@H](C)CO)S2(=O)=O
28. O=C(Nc1cccc(Cl)c1)c1csc([C@@H]2O[C@H](CO)[C@H](O)[C@H](O)[C@H]2O)n1
29. CC(=O)NC1C(=O)N(CCN2CCOCC2)c2ccc(C)cc21 (stereo not drawn)
30. CC(=O)NC1C(=O)N(CCN2CCOCC2)c2ccc(Cl)cc21 (stereo not drawn)
31. O=c1[nH][nH]c2c1[C@H](c1ccc(Cl)cc1)O[C@H](C1CCCC1)C2
32. COc1cc(CNC(=O)c2cc(-c3cc(Cl)ccc3OC)n[nH]2)cc(OC)c1

| assay / compound | 25 | 26 | 27 | 28 | 29 | 30 | 31 | 32 |
| --- | --- | --- | --- | --- | --- | --- | --- | --- |
| MmCpn inh | 0%[15.4 µM] | / | / | / | -10% | -6% | / | / |
| CCT modulator | / | 0 | 1 | 1 | -1 | -30* | -1 | 1 |
| Rango-impB inh | / | / | / | / | ? | 4% | / | / |
| Integrin act MD | / | / | -48% | / | 2% | -4% | / | / |
| Rango dissoc inh | / | / | / | / | -16% | -7% | / | / |

33. CC(C)(C)Cc1nnc(NC(=O)c2ccco2)s1
34. COC[C@H]1CCCN1[C@H]1CS(=O)(=O)N[C@@H]1COCc1ccccc1
35. Cc1ccc(-c2nnc(N3CCC(C)CC3)c3ccccc23)cc1C
36. O=C(Nc1ccc(N2CCCCC2)cc1)c1ccccc1
37. CC1Cc2cc(/C(O)=C3/C(=O)C(=O)N(Cc4cccnc4)C3c3cccc(O)c3)ccc2O1 (stereo not drawn)
38. COc1ccccc1C1/C(=C(\O)c2ccc3c(c2)OCCO3)C(=O)C(=O)N1Cc1cccnc1 (stereo not drawn)
39. COc1ccc(C2/C(=C(\O)c3ccc4c(c3)OCCO4)C(=O)C(=O)N2Cc2cccnc2)cc1 (stereo not drawn)
40. COc1ccc(Cl)cc1NC(=O)c1cccc(S(=O)(=O)Nc2c(C)n(C)n(-c3ccccc3)c2=O)c1

| assay / compound | 33 | 34 | 35 | 36 | 37 | 38 | 39 | 40 |
| --- | --- | --- | --- | --- | --- | --- | --- | --- |
| MmCpn inh | -1% | / | -2% | -1% | 1% | -8% | ? | / |
| CCT modulator | -76* | 0 | -43* | -66* | -79* | -5 | -58* | 2 |
| Rango-impB inh | 3% | / | 3% | -2% | 1% | 1% | ? | 1% |
| Integrin act MD | 19% | / | -67% | ? | 2% | -5% | ? | 0% |
| Rango dissoc inh | 18% | / | 1% | 0% | -4% | 1% | ? | 9% |

41. Cc1ccc(C(=O)OC2OC(=O)C(Cl)=C2N2CCOCC2)cc1 (stereo not drawn)
42. Cc1ccc(C(=O)Oc2ccccc2N2CCOCC2)cc1
43. Cc1cn(C2OC(COC(=O)c3ccccc3)C(O)C2O)c(=O)[nH]c1=O (stereo not drawn)
44. COc1ccc(NC(=O)c2cc(C3CCCCN3C(=O)c3ccccc3)on2)c(C)c1 (stereo not drawn)
45. CC(=O)Oc1ccc(-c2csnn2)cc1
46. Cc1ccc(-c2csnn2)cc1
47. C[C@@H]1CN([C@@H](C)CO)C(=O)CCCn2cc(nn2)CO[C@H]1CN(C)S(=O)(=O)c1ccccc1C#N

| assay / compound | 41 | 42 | 43 | 44 | 45 | 46 | 47 |
| --- | --- | --- | --- | --- | --- | --- | --- |
| MmCpn inh | 3% | 2% | -1% | / | -1% | 0% | / |
| CCT modulator | -50* | 1 | -32* | 0 | -6 | -3 | -53* |
| Rango-impB inh | 3% | 1% | 0% | / | 0% | 0% | / |
| Integrin act MD | 47% | -19% | 16% | / | -1% | 10µM* | 8% |
| Rango dissoc inh | 31% | 0% | 11% | / | 39% | -2% | / |

Single entries from above.
Reading of cpd 9 under Rango-impB inh: 7%
Reading of cpd 31 under CCT modulator: -1
Reading of cpd 29 under Integrin act MD: 2%

Quoted at random: 4 records from the list, in no set order.
43. Cc1cn(C2OC(COC(=O)c3ccccc3)C(O)C2O)c(=O)[nH]c1=O (stereo not drawn)
47. C[C@@H]1CN([C@@H](C)CO)C(=O)CCCn2cc(nn2)CO[C@H]1CN(C)S(=O)(=O)c1ccccc1C#N
41. Cc1ccc(C(=O)OC2OC(=O)C(Cl)=C2N2CCOCC2)cc1 (stereo not drawn)
44. COc1ccc(NC(=O)c2cc(C3CCCCN3C(=O)c3ccccc3)on2)c(C)c1 (stereo not drawn)

| assay / compound | 43 | 47 | 41 | 44 |
| --- | --- | --- | --- | --- |
| MmCpn inh | -1% | / | 3% | / |
| CCT modulator | -32* | -53* | -50* | 0 |
| Rango-impB inh | 0% | / | 3% | / |
| Integrin act MD | 16% | 8% | 47% | / |
| Rango dissoc inh | 11% | / | 31% | / |
